Measured values as given in paper PMC4447534 (ChemMedChem, 2015).

System: Vero cells
Test: Cytotoxicity for Vero cells
Assay type: cell-based
Conditions: one experiment in triplicate, means ± S.D.

Q: Which “Cytotoxicity ED50” value does the source give for “α-Naphtyloxyphenylethyl Thiocyanate [Compound 24]” here?
A: 70.1 ± 7.6 µM
